System: rat ileum mucosa

In the case of CN1[C@@H]2CC[C@H]1C[C@@H](OC(=O)C(CO)c1ccccc1)C2 (stereo partly shown) [Atropine, reference compound], the “block of the pro-secretory effect of PK1” value is reported as “not blocked”.

From patent US8188081B2, “Methods of treating inflammation using prokineticin 1 receptor antagonists” (Janssen Pharmaceutica, NV, priority 2005, dated 2012)
